# Data reported in patent publication US20010003002A1 (priority 1999, published 2001).
# Settings: human, in vivo, po
substance,measurement,value
calcium citrate,Experimental value of serum calcium versus placebo,Significantly higher
same,Experimental value of urinary calcium versus placebo,Significantly higher
